Target: T1, proton-coupled peptide transporter (Oryctolagus cuniculus, UniProt P36836)
T1 construct: Xenopus laevis oocytes were injected with cRNA coding the proton-coupled peptide transporter; expressed in transfected cells; host or cells: Xenopus laevis oocytes injected with cRNA transcribed in vitro from the cloned cDNA
T1 sequence (P36836 1-707): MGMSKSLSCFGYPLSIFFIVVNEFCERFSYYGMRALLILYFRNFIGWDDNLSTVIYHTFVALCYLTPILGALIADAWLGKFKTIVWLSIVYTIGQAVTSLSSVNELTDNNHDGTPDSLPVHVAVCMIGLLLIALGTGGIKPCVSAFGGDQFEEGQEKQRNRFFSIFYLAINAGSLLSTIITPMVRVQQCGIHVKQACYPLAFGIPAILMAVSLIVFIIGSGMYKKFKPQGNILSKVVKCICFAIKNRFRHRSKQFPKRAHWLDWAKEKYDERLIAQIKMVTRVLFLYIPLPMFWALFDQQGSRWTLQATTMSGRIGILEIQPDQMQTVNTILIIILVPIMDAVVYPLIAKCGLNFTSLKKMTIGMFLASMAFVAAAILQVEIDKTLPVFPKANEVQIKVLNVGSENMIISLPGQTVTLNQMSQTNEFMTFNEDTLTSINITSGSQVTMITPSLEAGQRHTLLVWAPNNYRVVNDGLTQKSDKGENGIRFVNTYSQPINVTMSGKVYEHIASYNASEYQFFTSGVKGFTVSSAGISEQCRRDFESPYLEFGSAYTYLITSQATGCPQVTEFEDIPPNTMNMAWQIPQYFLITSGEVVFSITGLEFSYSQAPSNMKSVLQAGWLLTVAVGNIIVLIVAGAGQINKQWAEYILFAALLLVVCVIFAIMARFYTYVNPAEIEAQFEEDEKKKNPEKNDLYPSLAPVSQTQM
Experiment: Two-electrode voltage clamp of Xenopus laevis oocytes injected with transporter cRNA: substrate-evoked inward currents and Km
Assay type: cell-based, rabbit
Conditions: current amplitudes at altered substrate concentrations, pH 5.5, cRNA-injected oocytes
From the text: These oocytes were subjected to two electrode voltages clamp analysis (Gene Clamp 500, Axon Instruments, California) in the manner described in Kanaisy & Hediger, M. A. Nature 360, 467-71 (1992).
FIG. 9 depicts electrophysiological measurements of transformed cocytes as a percent of glycyl-sarcosine evoked current. Data representing glycyl-sarcosine are depicted as a solid black bar. Data representing peptide are depicted with dotted bars. Data representing antibiotics are depicted with hatched bars.
By altering peptide concentrations, current amplitudes for different compositions, Km values were determined.

Substance: Diglycine (GG) [dipeptide substrate]
- Km: 2500 µM
